# Laboratory results as given in patent US20100175140A1, “Leucine-rich repeat kinase (LRRK2) drosophila model for parkinson's disease: wildtype1 (WT1) and G2019S mutant flies” (The Johns Hopkins University, priority 2008, published 2010).
# Test system: TH-positive neurons of mutant LRRK2 flies
# Assay: Anti-TH whole-mount brain immunostaining and counting of TH-positive neurons
# Format: in vivo, Drosophila melanogaster
# Conditions: mutant LRRK2 flies treated with L-DOPA; data not shown
# Experimental: Fluorescent immunostaining was performed on whole-mount dissected adult brain (23, 35) at 1, 21, 35, and 49 weeks of age. Cohorts of six to eight flies per genotype were used at each time point for immunostaining. The dissected brains were mounted in Vectashield (Vector Laboratories). Rabbit polyclonal anti-TH (Chemicon), mouse monoclonal anti-TH (Immunostar), anti-5-HT (Sigma), anti-elav (Developmental Studies Hybridoma Bank), and anti-Flag-antibodies were used as the primary antibodies. Alexa Fluor 488 goat anti-mouse IgG and Alexa Fluor 568 goat anti-mouse IgG (Invitrogen) were used as secondary antibodies. The numbers of DA and 5-HT neurons were scored in whole-mount brains under fluorescent (Zeiss LSM 250) and/or confocal microscopy (Zeiss LSM 510). For quantification of loss of anti-elav staining in brain, entire brain sections were digitized with an image analysis system. NIH Image J software was used to measure the optical density of anti-elav staining within the entire brain section (six brain sections per experimental group).
smiles,measurement,value
N[C@@H](Cc1ccc(O)c(O)c1)C(=O)O [L-DOPA],loss of TH-positive neurons,did not prevent
